In patent US9394282B2, “Pyrazole carboxamides as Janus kinase inhibitors” (Merck Sharp & Dohme Corp., priority 2011, dated 2016) one finds IC50 data, which are given here for 20 molecules.

Protein sequences, listed by entry. Tags and fused reporters are not part of them. Residues count along the entry.
UniProt O60674, 849-1124: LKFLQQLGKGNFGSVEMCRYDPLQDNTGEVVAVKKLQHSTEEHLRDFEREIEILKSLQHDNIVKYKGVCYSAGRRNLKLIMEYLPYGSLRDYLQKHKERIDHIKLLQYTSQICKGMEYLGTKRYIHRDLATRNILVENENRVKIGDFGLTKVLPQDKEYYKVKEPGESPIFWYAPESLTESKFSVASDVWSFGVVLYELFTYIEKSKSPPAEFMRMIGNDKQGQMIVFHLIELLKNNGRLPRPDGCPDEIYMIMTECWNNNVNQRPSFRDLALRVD

In general, IC50 refers to the concentration that gives 50% inhibition.

This assay concerns the target JAK2 (Homo sapiens (Human), UniProt O60674). Description: Jak biochemical HTRF assay, JAK2. To be noted: recombinant purified GST-tagged catalytic domain; HTRF format; [ATP] 8.5 μM. The text has this:
Jak Biochemical HTRF Assay Protocol
Subsequent reagent additions employed an Agilent Bravo.
In the case of `N#C[C@@H]1CS(=O)(=O)CCC1n1cc(C(N)=O)c(Nc2ccc(F)cc2)n1` (mixture of isomers) [Example 8-2, 1-((3R,4S and 3S, 4R)-3-cyano-1,1-dioxidotetrahydro-2H-thiopyran-4-yl)-3-((4-fluorophenyl)amino)-1H-pyrazole-4-carboxamide], the IC50 was 79 nM. In the case of `N#C[C@@H]1CN(C(=O)OCCN2CCOCC2)CC[C@H]1n1cc(C(N)=O)c(Nc2ccc(F)cc2)n1` (racemic) [Example 5-4, 2-morpholin-4-ylethyl (3R,4R and 3S,4S)-4-{4-carbamoyl-3-[(4-fluorophenyl)amino]-1H-pyrazol-1-yl}-3-cyanopiperidine-1-carboxylate] it was 835 nM; in that of `CC(C)(C#N)COC(=O)N1CC[C@@H](n2cc(C(N)=O)c(Nc3ccc(F)cc3)n2)[C@H](C#N)C1` (racemic) [Example 5-6, 2-cyano-2-methylpropyl (3R,4R and 3S,4S)-4-{4-carbamoyl-3-[(4-fluorophenyl)amino]-1H-pyrazol-1-yl}-3-cyanopiperidine-1-carboxylate], 411 nM; in that of `N#C[C@@H]1CN(C(=O)OCC(F)F)CC[C@H]1n1cc(C(N)=O)c(Nc2ccc(F)cc2)n1` (racemic) [Example 5-16, 2,2-difluoroethyl (3R,4R and 3S,4S)-4-{4-carbamoyl-3-[(4-fluorophenyl)amino]-1H-pyrazol-1-yl}-3-cyanopiperidine-1-carboxylate], 132 nM. On to `CCOC(=O)N1CC[C@@H](n2cc(C(N)=O)c(Nc3ccc(F)cc3)n2)[C@H](C#N)C1` (racemic) [Example 5-23, ethyl (3R,4R and 3S,4S)-4-{4-carbamoyl-3-[(4-fluorophenyl)amino]-1H-pyrazol-1-yl}-3-cyanopiperidine-1-carboxylate], for which the IC50 worked out at 158 nM. Turning to `N#C[C@@H]1CN(C(=O)OCC(F)(F)F)CC[C@H]1n1cc(C(N)=O)c(Nc2ccc(F)cc2)n1` (racemic) [Example 5-28, 2,2,2-trifluoroethyl (3R,4R and 3S,4S)-4-{4-carbamoyl-3-[(4-fluorophenyl)amino]-1H-pyrazol-1-yl}-3-cyanopiperidine-1-carboxylate], the IC50 was 268 nM. For `CCOC(=O)COC(=O)N1CC[C@@H](n2cc(C(N)=O)c(Nc3ccc(F)cc3)n2)[C@H](C#N)C1` (racemic) [Example 5-38, 2-ethoxy-2-oxoethyl (3R,4R and 3S,4S)-4-{4-carbamoyl-3-[(4-fluorophenyl)amino]-1H-pyrazol-1-yl}-3-cyanopiperidine-1-carboxylate], the IC50 was 73 nM.

On to `CCOC(=O)N1CC[C@H](n2cc(C(N)=O)c(Nc3ccc(F)cc3)n2)[C@H](C#N)C1` (racemic) [Example 5-44, ethyl (3R,4S and 3S,4R)-4-{4-carbamoyl-3-[(4-fluorophenyl)amino]-1H-pyrazol-1-yl}-3-cyanopiperidine-1-carboxylate], for which the IC50 was 1200 nM. For the molecule `CCOC(=O)COC(=O)N1CC[C@H](n2cc(C(N)=O)c(Nc3ccc(F)cc3)n2)[C@H](C#N)C1` (racemic) [Example 5-59, 2-ethoxy-2-oxoethyl (3R,4S and 3S,4R)-4-{4-carbamoyl-3-[(4-fluorophenyl)amino]-1H-pyrazol-1-yl}-3-cyanopiperidine-1-carboxylate], the IC50 worked out at 1390 nM. On to `N#C[C@@H]1CN(C(=O)OCC(F)F)CC[C@@H]1n1cc(C(N)=O)c(Nc2ccc(F)cc2)n1` (racemic) [Example 5-65, 2,2-difluoroethyl (3R,4S and 3S,4R)-4-{4-carbamoyl-3-[(4-fluorophenyl)amino]-1H-pyrazol-1-yl}-3-cyanopiperidine-1-carboxylate], for which the IC50 was 1080 nM. The value for `N#C[C@@H]1CN(C(=O)OCC(F)(F)F)CC[C@@H]1n1cc(C(N)=O)c(Nc2ccc(F)cc2)n1` (racemic) [Example 5-66, 2,2,2-trifluoroethyl (3R,4S and 3S,4R)-4-{4-carbamoyl-3-[(4-fluorophenyl)amino]-1H-pyrazol-1-yl}-3-cyanopiperidine-1-carboxylate] was 994 nM; that for `COC1CC(CN2CC[C@@H](C#N)[C@H](n3cc(C(N)=O)c(Nc4ccc(F)cc4)n3)C2)C1` (mixture of isomers) [Example 6-9, 1-{(3S,4R and 3R,4S)-4-cyano-1-[(3-methoxycyclobutyl)methyl]piperidin-3-yl}-3-[(4-fluorophenyl)amino]-1H-pyrazole-4-carboxamide] was 191 nM; that for `N#C[C@@H]1CCN(Cc2cccnc2F)C[C@H]1n1cc(C(N)=O)c(Nc2ccc(F)cc2)n1` (racemic) [Example 6-17, 1-{(3S,4R and 3R,4S)-4-cyano-1-[(2-fluoropyridin-3-yl)methyl]piperidin-3-yl}-3-[(4-fluorophenyl)amino]-1H-pyrazole-4-carboxamide] was 12 nM. For the molecule `Cc1ncc(CN2CC[C@@H](C#N)[C@H](n3cc(C(N)=O)c(Nc4ccc(F)cc4)n3)C2)s1` (racemic) [Example 6-18, 1-{(3S,4R and 3R,4S)-4-cyano-1-[(2-methyl-1,3-thiazol-5-yl)methyl]piperidin-3-yl}-3-[(4-fluorophenyl)amino]-1H-pyrdzole-4-carboxamide], the concentration for half-maximal inhibition (IC50) stood at 19 nM. The value for `Cn1ccc(CN2CC[C@@H](n3cc(C(N)=O)c(Nc4ccc(F)cc4)n3)[C@H](C#N)C2)n1` (racemic) [Example 6-26, 1-{(3R,4R and 3S,4S)-3-cyano-1-[(1-methyl-1H-pyrazol-3-yl)methyl]piperidin-4-yl}-3-[(4-fluorophenyl)amino]-1H-pyrazole-4-carboxamide] was 148 nM; that for `N#C[C@@H]1CN(Cc2cncc(F)c2)CC[C@H]1n1cc(C(N)=O)c(Nc2ccc(F)cc2)n1` (racemic) [Example 6-28, 1-{(3R,4R and 3S,4S)-3-cyano-1-[(5-fluoropyridin-3-yl)methyl]piperidin-4-yl}-3-[(4-fluorophenyl)amino]-1H-pyrazole-4-carboxamide] was 58 nM.

For the molecule `COC1CC(CN2CC[C@@H](n3cc(C(N)=O)c(Nc4ccc(F)cc4)n3)[C@H](C#N)C2)C1` (mixture of isomers) [Example 6-30, 1-{(3R,4R and 3S,4S)-3-cyano-1-[(3-methoxycyclobutyl)methyl]piperidin-4-yl}-3-[(4-fluorophenyl)amino]-1H-pyrazole-4-carboxamide], the IC50 is 166 nM.

`N#C[C@@H]1CN(CCC2CCOCC2)CC[C@H]1n1cc(C(N)=O)c(Nc2ccc(F)cc2)n1` (racemic) [Example 6-31, 1-{(3R,4R and 3S,4S)-3-cyano-1-[2-(tetrahydro-2H-pyran-4-yl)ethyl]piperidin-4-yl}-3-[(4-fluorophenyl)amino]-1H-pyrazole-4-carboxamide]: the IC50 came to 258 nM. The value for `N#C[C@@H]1CCN(Cc2cncs2)C[C@H]1n1cc(C(N)=O)c(Nc2ccc(F)cc2)n1` (racemic) [Example 7-1, 1-[(3S,4R and 3R,4S)-4-Cyano-1-(1,3-thiazol-5-ylmethyl)piperidin-3-yl]-3-[(4-fluorophenyl)amino]-1H-pyrazole-4-carboxamide] was 6 nM; that for `N#C[C@@H]1CS(=O)(=O)CCC1n1cc(C(N)=O)c(Nc2ccc(F)cc2)n1` (mixture of isomers) [Example 8-1, 1-((3R,4S and 3S,4R)-3-Cyano-1,1-dioxidotetrahydro-2H-thiopyran-4-yl)-3-((4-fluorophenyl)amino)-1H-pyrazole-4-carboxamide] was 112 nM.
